According to US6080542A, “Plant peptide transport gene” (priority 1997, dated 2000):

Columns and labels:
[1] = test system: ATPTR2Ap; assay: Uptake of L-leucyl-L-[3H]leucine and competition, PB1X-9B[pPTF4]; conditions: pH 5.5, dileucine and leucine at 100-fold
Protocol: The kinetics of ATPTR2A-mediated transport of peptides in yeast was evaluated by transforming pPTF4 into the S. cerevisiae peptide transport mutant, PB1X-9B and measuring the uptake of tritiated Leu-Leu dipeptide.
(§1) L-leucyl-L [^3 H]leucine trifluoroacetic acid (TFA) was synthesized by standard solution phase techniques (Naider, F. et al., J. Biol. Chem. 249:9-20 (1974)). Uptake of L-leucyl-L-[H]leucine was performed as by Island, M. D. et al (J. Bacteriol. 169:2132-2136 (1987)), with the following modifications. Cells were grown to late log phase (26×10^7 cells/ml) overnight in SC with 2% glucose, 1 mg/ml allantoin plus amino acids to supplement auxotrophic markers. To induce peptide transport. 5-15 ml from this culture was added to 100 ml fresh medium such that the density was 3.0×10^6 cells/ml. This culture was allowed to grow (approx. 2 hrs.) to a density of 6.0×10^6 cells/ml and then harvested by centrifugation. The pelleted cells were washed twice with 10 ml cold dH2 O and suspended in cold 2% glucose to a final concentration of 2×10^8 cells/ml and incubated at 30° C. for 15 min. 500 μl of cells were then added to an equal volume of reaction mixture (30° C.) and incubated at 30°-C. At 20, 40, 60, 90, and 120 sec. intervals, 190 μl portions were removed, filtered over filters (pore size, 0.45 μm; GN-6; Gelman Sciences, Inc., Ann Arbor, Mich.) and washed 2 times with 5 ml cold, sterile dH2 O and once with 5 ml dH2 O at room temperatures. Filters were placed in scintillation vials with 5 ml of Budget-Solve scintillation cocktail (Research Products International Corp., Mount Prospect, Ill.) and counted (liquid scintillation counter; LS-7000; Beckman Instruments, Inc., Fullerton, Calif.). The final concentration of the components in the uptake assay was 1% glucose, 40 mM sodium citrate-potassium phosphate buffer (pH 5.5), and 1.5×105 M L-leucyl-L-[^3 H]leucine (specific activity, 10 mCi/mmole). Uptake is expressed as nanomoles per mg dry weight.

[2] = molecular target: T1, yeast peptide transport system (Saccharomyces cerevisiae, UniProt P32901); assay: Competition for L-leucyl-L-[3H]leucine uptake, PB1X-9B[pJP9]; assay type: cell-based; conditions: pH 5.5
T1 construct: The ptr2 gene encodes a 602 amino acid hydrophobic polypeptide with 12 putative hydrophobic segments; expressed in transfected cells; host or cells: S. cerevisiae peptide transport mutant PB1X-9B (ptr2-2) transformed with pJP9
T1 sequence (P32901 1-601): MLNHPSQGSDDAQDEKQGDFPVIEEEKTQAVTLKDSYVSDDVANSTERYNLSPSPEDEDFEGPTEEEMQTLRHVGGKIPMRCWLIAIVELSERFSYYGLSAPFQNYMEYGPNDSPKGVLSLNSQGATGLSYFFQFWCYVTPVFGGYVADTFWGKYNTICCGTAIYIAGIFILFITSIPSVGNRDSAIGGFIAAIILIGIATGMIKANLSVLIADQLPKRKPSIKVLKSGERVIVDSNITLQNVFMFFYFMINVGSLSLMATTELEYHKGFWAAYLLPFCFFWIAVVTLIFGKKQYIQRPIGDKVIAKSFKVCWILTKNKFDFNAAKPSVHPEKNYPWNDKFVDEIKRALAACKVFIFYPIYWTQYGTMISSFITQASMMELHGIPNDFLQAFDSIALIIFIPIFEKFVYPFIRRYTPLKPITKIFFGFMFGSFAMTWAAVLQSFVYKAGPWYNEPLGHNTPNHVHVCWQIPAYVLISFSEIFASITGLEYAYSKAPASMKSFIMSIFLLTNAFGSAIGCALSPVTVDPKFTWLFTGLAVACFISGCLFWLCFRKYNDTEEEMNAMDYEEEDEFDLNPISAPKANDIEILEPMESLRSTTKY
Protocol: as §1

[3] = test system: A. thaliana seedlings; assay: Root assay, toxic peptide plus competitor peptide; assay type: in vivo, Arabidopsis thaliana
Protocol: Approximately 15 A. thaliana seeds were placed in a row at one end of 10 cm plate containing 20 ml of Arabidopsis growth media (Kranz and Kirchheim 1987). The seeds were incubated 3-5 days in the light with the plate set in an upright position. When the roots were approximately 1-2 cm long, sterile paper filter disks were placed immediately in front of the root tips on the right and left side of the plate 2 cm from the edge of the plate. A line was drawn across the plate using the top of the disks as a guide marking zero growth. 5 μl of toxic amino acid analog, toxic peptide, or toxic peptide plus competitor was added to one disk while H2 O was place on the other disk. The plates were incubated for an additional 3-5 days. The average length of the roots was measured from the line and the results expressed as a percentage of control root growth.

[4] = test system: PB1X-9B; assay: Growth on peptides as amino acid source, peptide transport mutant; assay type: cell-based, Saccharomyces cerevisiae; design: key: +: Growth was scored as uniform colony formation; -: negative controls which showed no growth; conditions: PBIX-9B; 80 μM peptide in SC medium, 30° C., 72 hrs
Protocol: (§2) Thus, the peptide transport mutant PB1X-9B and deletion strain PB1X-2AΔ transformed with plasmids pPTF4 (ATPTR2A) or pDTF1 (ATPTR2B) were grown on various peptides to assess the specificity of the plant peptide transporter. In addition, untransformed PB1X-9B, PB1X-9B transformed with plasmid pJP9 encoding the above-described yeast peptide transport gene, PB1X-2AΔ and PB1X-2A, the ptr2^+ parental strain to PB1X-2AΔ strain, were also assayed. Each strain was grown overnight in SC media plus uracil (non-transformed) or minus uracil (transformed) plus amino acids to stationary phase and harvested by centrifugation. Cells were then washed twice with sterile dH2 O and resuspended at 5×10^6 cells/ml. 5 μl of each suspension was applied as a small spot to a 2 ml volume of solid media in a 24 well plate. All peptides were suspended in sterile, deionized water and added to an equal volume of SC medium plus the appropriate amino acids and uracil when required. The medium for each assay thus consisted of SC medium plus or minus uracil supplemented with 80 μM of a specific peptide and auxotrophic requirements minus the amino acid components of the added peptide. The plates were incubated at 30° C. for 72 hrs. and then scored for growth.

[5] = test system: PB1X-9B (pPTF4); assay: Growth on peptides, mutant transformed with plant gene ATPTR2A; assay type: cell-based, Saccharomyces cerevisiae; design: key: +: Growth was scored as uniform colony formation; -: negative controls which showed no growth; conditions: PBIX-9B (pPTF4); 80 μM peptide in SC medium, 30° C., 72 hrs
Protocol: as §2

[6] = test system: PB1X-9B (pJP9); assay: Growth on peptides, mutant transformed with yeast peptide transport gene; assay type: cell-based, Saccharomyces cerevisiae; design: key to growth on peptide: +: Growth was scored as uniform colony formation; -: negative controls which showed no growth; conditions: for growth on peptide: PBIX-9B (pJP9), 80 μM peptide in SC medium, 30° C., 72 hrs
Protocol: as §2

[7] = test system: PB1X-2AΔ (pDTF1); assay: Growth on peptides, deletion strain transformed with ATPTR2B; assay type: cell-based, Saccharomyces cerevisiae; design: key: +: Growth was scored as uniform colony formation; -: negative controls which showed no growth; conditions: PBIX-2AΔ (pDTF1); 80 μM peptide in SC medium, 30° C., 72 hrs
Protocol: as §2

| Substance | competition for uptake of [3H]-dileucine [1] | competition for uptake of [3H]-dileucine [2] | reversal of toxicity by competitor (in words) ([3]; toxic peptide Ala-Eth) | root growth with toxic peptide plus competitor ([3]; toxic peptide Ala-Eth) | reversal of toxicity by competitor (in words) ([3]; toxic peptide Leu-Eth) | growth on peptide [4] | growth on peptide [5] | growth on peptide [6] | growth on peptide [7] | other results |
| --- | --- | --- | --- | --- | --- | --- | --- | --- | --- | --- |
| Met-Met: competitor dipeptide (MM) | uptake competition similar to that seen for Leu-Leu | uptake competition similar to that seen for Leu-Leu | able to reverse the toxicity | 40 percentage of control root gro | reversing the toxicity |  |  |  |  |  |
| Ala-Ala: competitor dipeptide (AA) | uptake competition similar to that seen for Leu-Leu | uptake competition similar to that seen for Leu-Leu | unable to reverse the inhibition | 0 percentage of control root gro | unable to reverse the inhibition |  |  |  |  | root growth with toxic peptide plus competitor ([3]; toxic peptide Leu-Eth): 0 percentage of control root gro |
| Leu-Phe: competitor dipeptide (LF) | uptake competition similar to that seen for Leu-Leu | uptake competition similar to that seen for Leu-Leu |  |  |  |  |  |  |  |  |
| Ala-Leu: dipeptide growth substrate (AL) |  |  |  |  |  | - | + | + |  |  |
| Ala-Lys: dipeptide growth substrate (AK) |  |  |  |  |  | - | + | + | + |  |
| Ala-Met: competitor dipeptide (AM) | uptake competition similar to that seen for Leu-Leu | uptake competition similar to that seen for Leu-Leu | able to reverse the toxicity | 70 percentage of control root gro |  |  |  |  |  |  |
| His-Lys: dipeptide growth substrate (HK) |  |  |  |  |  | - | + | + | + |  |
| Tyr-Gly-Gly-Phe-Leu |  |  |  |  |  | - | - | - |  | growth on peptide (in words) ([6]; PB1X-9B transformed with pJP9): showed growth on all peptides except |
| Lys-Lys: dipeptide growth substrate |  |  |  |  |  | - | + | + | + |  |
| Leu-Met: competitor dipeptide (LM) |  |  |  |  | reversing the toxicity |  |  |  |  | root growth with toxic peptide plus competitor ([3]; toxic peptide Leu-Eth): 100 percentage of control root gro |
